Measurements published in US20060069032A1, “Beta-endorphin activity in cosmetics and dermatology” (L'OREAL, priority 2003, published 2006).

Protein sequences, listed by entry. Tags and fused reporters are not part of them.
UniProt P35372, whole entry: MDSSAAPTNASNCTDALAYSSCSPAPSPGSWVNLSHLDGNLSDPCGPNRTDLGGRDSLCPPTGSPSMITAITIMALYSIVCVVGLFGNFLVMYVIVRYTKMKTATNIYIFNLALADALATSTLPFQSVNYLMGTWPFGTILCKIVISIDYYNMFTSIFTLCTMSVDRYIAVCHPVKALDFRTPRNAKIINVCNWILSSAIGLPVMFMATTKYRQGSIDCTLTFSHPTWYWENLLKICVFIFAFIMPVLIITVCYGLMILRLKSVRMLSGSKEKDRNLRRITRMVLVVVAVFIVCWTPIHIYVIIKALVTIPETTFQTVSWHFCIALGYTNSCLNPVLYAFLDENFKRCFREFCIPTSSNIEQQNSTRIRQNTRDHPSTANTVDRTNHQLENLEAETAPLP
UniProt P41143, whole entry: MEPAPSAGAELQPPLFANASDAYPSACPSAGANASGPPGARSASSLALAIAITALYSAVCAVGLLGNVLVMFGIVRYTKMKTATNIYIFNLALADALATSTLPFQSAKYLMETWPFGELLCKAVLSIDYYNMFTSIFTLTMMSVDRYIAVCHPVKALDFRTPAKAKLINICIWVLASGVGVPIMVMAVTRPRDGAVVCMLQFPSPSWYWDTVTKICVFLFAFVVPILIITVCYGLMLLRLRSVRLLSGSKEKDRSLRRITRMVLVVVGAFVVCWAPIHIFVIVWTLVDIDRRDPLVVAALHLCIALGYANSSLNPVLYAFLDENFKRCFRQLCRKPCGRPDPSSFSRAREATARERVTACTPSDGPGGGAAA

How the values were obtained:
[1] = test system: Transglutaminase 1 (TGK) messenger; experiment: Transglutaminase I (TGK) messenger expression by quantitative RT-PCR in reconstructed epidermis SkinEthic; type: cell-based, human; conditions: 0.01 μM, 24 hours
Procedure: The study was carried out on a model of reconstructed epidermis SkinEthic. Upon receiving, the epidermes were precultured for 24 hours in SkinEthic medium. The culture medium was then replaced with medium containing the test product (two epidermes per concentration tested), and then the epidermes were cultured for 24 hours at 37° C. and 5% CO2. A batch of 2 epidermes was not treated. The culture supernatants were then removed and the epidermes were rinsed with a PBS solution, cut and deposited in sterile RNA-free tubes in the presence of Tri-Reagent (Sigma T9424) and then immediately frozen at −80° C. […]
The reverse transcription was carried out in the following manner: • extraction of the total RNA of each epidermis with the aid of Tri-Reagent according to the protocol recommended by the supplier, and then a new extraction with chloroform and precipitation with isopropanol. • removal of the traces of potentially contaminating DNA by treating with the DNA-free system (Ambion) • carrying out of the reaction of reverse transcription of the mRNA in the presence of the oligo(dT) primer and of the enzyme Superscript II (Gibco) • quantification, by fluorescence, of the synthesized cDNA and adjustment of the concentrations of 50 ng/ml. […]
The incorporation of fluorescence into the amplified DNA was measured continuously during the PCR cycles. […]

mu receptors = mu receptors (Homo sapiens, UniProt P35372); conditions: cited from earlier work
delta receptors = delta receptors (Homo sapiens, UniProt P41143); conditions: cited from earlier work

β-Endorphin [Beta-endorphin]
TGK/actin [1]: 0.149
affinity for the mu receptors (mu receptors): high affinity
affinity for the delta receptors (delta receptors): high affinity
